Results reported in patent US12404260B2, “Pyridine rings containing derivatives as MALT1 inhibitors” (Janssen Pharmaceutica NV, priority 2019, dated 2025).

The chains behind the UniProt entries cited, without tags or fusion partners.
UniProt Q9UDY8, whole entry: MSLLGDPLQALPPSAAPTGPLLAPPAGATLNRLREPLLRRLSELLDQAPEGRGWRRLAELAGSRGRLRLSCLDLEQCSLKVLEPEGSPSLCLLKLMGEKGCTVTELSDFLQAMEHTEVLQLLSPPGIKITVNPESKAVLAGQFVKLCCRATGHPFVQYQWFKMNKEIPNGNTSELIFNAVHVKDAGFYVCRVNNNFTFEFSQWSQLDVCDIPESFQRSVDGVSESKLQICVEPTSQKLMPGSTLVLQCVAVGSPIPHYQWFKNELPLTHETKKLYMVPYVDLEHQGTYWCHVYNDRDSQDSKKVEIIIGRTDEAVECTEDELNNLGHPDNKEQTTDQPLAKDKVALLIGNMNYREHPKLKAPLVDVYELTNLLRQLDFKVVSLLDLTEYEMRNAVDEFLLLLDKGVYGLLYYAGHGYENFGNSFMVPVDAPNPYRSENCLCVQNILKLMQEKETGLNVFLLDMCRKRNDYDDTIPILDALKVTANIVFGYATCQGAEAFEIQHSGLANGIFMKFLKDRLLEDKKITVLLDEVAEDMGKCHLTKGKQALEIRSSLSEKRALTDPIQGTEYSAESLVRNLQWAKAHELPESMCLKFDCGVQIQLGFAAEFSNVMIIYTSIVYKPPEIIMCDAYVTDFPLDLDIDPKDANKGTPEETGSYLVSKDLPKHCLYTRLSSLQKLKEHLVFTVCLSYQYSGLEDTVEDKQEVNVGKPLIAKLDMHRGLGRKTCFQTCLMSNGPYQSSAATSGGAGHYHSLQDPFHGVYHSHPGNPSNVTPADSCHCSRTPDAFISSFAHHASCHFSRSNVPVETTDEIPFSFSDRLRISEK

What was measured:
[1] = molecular target: full-length MALT1 protein (Strep-MALT1(1-824)-His) (Homo sapiens, UniProt Q9UDY8); test: MALT1 Biochemical Protease Assay; settings: read-out: MALT1_Biochemical activity (Ac-LRSR-amc) IC50; 10 nM FL MALT1, 200 μM Ac-LRSR-AMC, 50 min pre-incubation, 4 h at RT
Description: MALT1 protease activity was assessed in an in vitro assay using a tetrapeptide as substrate and full-length MALT1 protein (Strep-MALT1(1-824)-His) purified from baculovirus-infected insect cells. The tetrapeptide LRSR is coupled to AMC (7-amino-4-methylcoumarin) and provides a quenched, fluorescent substrate for the MALT1 protease (SM Biochemicals). Cleavage of AMC from the Arginine residue results in an increase in coumarin fluorescence measured at 460 nm (excitation 355 nm). The final assay buffer consisted of 10 nM FL MALT1 protein, 200 μM Ac-LRSR-AMC, 50 mM Tris pH 7.5, 0.6 M Citrate, 1 mM DTT, 1 mM EDTA, 0.05% BSA and 1.5% DMSO. Test compounds were spotted at 50 nL in 100% DMSO per well of a black 384-Proxiplate (Perkin Elmer). Test compound concentrations ranged from 30 μM to 0.5 nM using 11 dilution steps (1:3). Background signal was measured from control wells containing assay buffer without enzyme which functions as low control (LC). […] Substrate was added subsequently and fluorescence was measured in Labsystems fluoroskan at excitation 355 nm and emission 460 nm to determine time 0. The reaction was subsequently incubated for 4 h at RT and fluorescence was measured. […] Characterization of the substrate Ac-LRSR-AMC determined the Michaelis constant KM at 200 μM.
IC50 values were calculated using the following formula (Z prime should be >0.5): […]

[2] = test system: secretion of IL10 by OCI-LY3 ABC-DLBCL cells; test: Human IL10 Mesoscale assay (OCI-LY3); settings: read-out: Human IL10 Mesoscale assay (OCI-LY3) IC50, 24 h incubation, IL10 in supernatant
Description: (§1) NFKB signaling regulates the secretion of multiple cytokines, including IL6 and IL10. Secretion of the cytokines IL6 and IL10 by OCI-LY3 ABC-DLBCL cells was measured using a mesoscale assay. Inhibition of NFKB signaling by MALT1 inhibitors results in a decrease of IL6/10 secretion.
(§2) OCI-LY3 cells were propagated in RPMI-1640 (Sigma Aldrich) supplemented with 10% fetal bovine serum (HyClone), 1 mM sodium pyruvate (Invitrogen), 2 mM L-glutamine (Sigma Aldrich) and 1% PenStrep (Sigma Aldrich). Cell passage number should not exceed 30. Cells should be kept between 0.5-2.5 million cells per mL during culturing and cells should be supplemented every 2-3 days with fresh 50 μM beta-mercaptoethanol. No beta-mercaptoethanol was used during the mesoscale assay.
(§3) For the Mesoscale assay, 100,000 OCI-LY3 cells were seeded per well into black-colored 96-well plates with clear bottom (Corning #3904) and test compounds were added in 9 dilution steps (1:2) ranging from 15 μM to 58.6 nM (final DMSO concentration 0.3%). DMSO control wells were used to determine the maximum signal (High Control (HC)). […] After 3× washes with PBS+0.05% Tween-20, plates were incubated with 150 μL 2× Read Buffer T and read on SECTOR imager.

[3] = test system: secretion of IL6 by OCI-LY3 ABC-DLBCL cells; test: Human IL6 Mesoscale assay (OCI-LY3); settings: read-out: Human IL6 Mesoscale assay (OCI-LY3) IC50, 24 h incubation, IL6 in supernatant
Description: as §1, §2, §3

| IC50 [1] [nM] | IC50 [2] [nM] | IC50 [3] [nM] | Structure (SMILES) |
| --- | --- | --- | --- |
| 1200 | 1580 | 2690 | CO[C@H](C)c1c(NC(=O)Nc2cnc(-n3ncc(C(C)(C)O)n3)c(Cl)c2)cnc(C)c1Cl |
| 40 | 100 | 150 | CO[C@@H](C)c1c(NC(=O)Nc2cnc(-n3ncc(C(C)(C)O)n3)c(Cl)c2)cnc(C)c1Cl |
